## Measured affinities in a library of Ab-14 light chain variants

The measurements come from Engelhart et al. 2022 (doi:10.1038/s41597-022-01779-4) through the FLAb antibody collection.

Target peptide (SARS-CoV-2 spike, HR2 region): PDVDLGDISGINAS

Parent: Ab-14, a human scFv built as VH, the linker GGGGSGGGGSGGGGS, VL. Only the CDRs of the light chain vary.
VH: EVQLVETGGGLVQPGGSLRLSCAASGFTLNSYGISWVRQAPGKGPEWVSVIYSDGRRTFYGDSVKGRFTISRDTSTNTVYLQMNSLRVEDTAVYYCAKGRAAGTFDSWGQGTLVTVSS
VL: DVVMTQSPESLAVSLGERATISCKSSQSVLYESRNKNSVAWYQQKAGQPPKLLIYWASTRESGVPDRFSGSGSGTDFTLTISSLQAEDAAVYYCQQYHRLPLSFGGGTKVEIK

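The parent was found by panning a naive human phage display library on the peptide. Library AAYL50 holds single substitutions and randomly drawn double and triple substitutions in the CDRs. Affinity was read by AlphaSeq, a pooled yeast mating assay with surface-displayed partners. Pairs that bind mate more often; barcode pairs of the diploids are counted by sequencing. Read counts were normalised to the haploid input and turned into Kd by a linear fit to BCL2-family pairs of known affinity, for each replicate. The assay was run in three technical replicates.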

Each variant is given by its three light chain CDRs, as the data file delimits them; those of the parent are KSSQSVLYESRNKNSVA, WASTRES, QQYHRLPLS. Kd is apparent (estimated from mating counts) and averaged on the log scale over replicates with a signal. Smaller is tighter. A pair that was not seen in any replicate is written "nd"; this usually means weak binding, but a binder can also be missed. Nonspecific signal, from three strains lacking the peptide, appeared in 18% of pairings of library AAYL50, centred on 15 µM (5% of these signals below 970 nM); values are not corrected for it. The control count says in how many pairings with the empty strains this scFv gave a signal.

Variant KSSQSVLYESRNKNFVA | WASTRES | AAYHRLPLS gave 190 µM (3 of 3 replicates; controls 4 of 9).
Variant KSSQSVLYESRNKTSVE | WASTRES | QKYHRLPLS gave 270 µM (1 of 3 replicates; controls 1 of 9).
Variant KSSQSVLYESRNKNSVA | WASTRES | QQYHLCPQS gave 2.3 mM (1 of 3 replicates; controls 1 of 9).
Variant KSSQSVLYESRNKNSVA | WASTREG | QQYHRLALR gave 450 nM (3 of 3 replicates; controls 0 of 9).
Variant KSSQSVLYESRNKNSVA | WASTRES | QQYHTLPDS gave 30 nM (3 of 3 replicates; controls 1 of 9).
Variant KSSQSVLYESREKNHVA | WASTRES | QQYHRLPLC gave 3.8 µM (2 of 3 replicates; controls 1 of 9).
Variant KHSQSVLKEIRNKNSVA | WASTRES | QQYHRLPLS gave 91 nM (3 of 3 replicates; controls 0 of 9).
Variant KSSQSVLYEWRNKNSVA | IASTRES | QQYHRLPLF gave nd (0 of 3 replicates; controls 2 of 9).
Variant KSSQSVYYESLNKNSNA | WASTRES | QQYHRLPLS gave 64 µM (1 of 3 replicates; controls 0 of 9).
Variant KSSQIVLYESRNKNSVA | GASTRES | QQYHRLPWS gave 6.3 nM (3 of 3 replicates; controls 1 of 9).
Variant KSSQSVLYSSRNQNSVA | WASTREG | QQYHRLPLS gave 8.7 nM (3 of 3 replicates; controls 0 of 9).
Variant KSSTSVLYESRNKNSVA | QASTRVS | QQYHRLPLS gave 4.1 nM (3 of 3 replicates; controls 3 of 9).
Variant KSSQSSLYESRNKNQVA | WASTRES | QQYHPLPLS gave 5.9 nM (3 of 3 replicates; controls 1 of 9).
Variant KSSCSNLYESRNKNSVA | WNSTRES | QQYHRLPLS gave nd (0 of 3 replicates; controls 1 of 9).
Variant KSSQSPLYESRNMNSVA | WASTRES | QQYVRLPLS gave nd (0 of 3 replicates; controls 3 of 9).
Variant KSSQSVMYESRNKNSWA | WALTRES | QQYHRLPLS gave nd (0 of 3 replicates; controls 0 of 9).
Variant DSSQSVLYESRNKRSVA | WASTRES | QQYHRLLLS gave nd (0 of 3 replicates; controls 3 of 9).
Variant KSSQSVLYESRNKNSVA | MASTRES | QQYHWLPLS gave 23 nM (3 of 3 replicates; controls 2 of 9).
Variant KVSQSVLYESENKNSVA | WASTRES | WQYHRLPLS gave nd (0 of 3 replicates; controls 0 of 9).
Variant KSSQSVLYESRNKNSEA | WGSTREC | QQYHRLPLS gave 5.5 µM (1 of 3 replicates; controls 0 of 9).
Variant KSSQSVSSESRNKNSVA | WASTREH | QQYHRLPLS gave 9.2 nM (3 of 3 replicates; controls 2 of 9).
Variant KSSQSVLYMSRNKNSVA | WASTRRS | QPYHRLPLS gave 8.5 µM (3 of 3 replicates; controls 3 of 9).
Variant KSSQSVLYESRNKNGVA | WASTRES | QQYHRLGES gave 2.2 nM (3 of 3 replicates; controls 2 of 9).
Variant KSSYSVLYISRNKNSVA | WASTRES | QAYHRLPLS gave nd (0 of 3 replicates; controls 1 of 9).
Variant KSSQSVLYESRPKNSVA | WACTRES | QDYHRLPLS gave nd (0 of 3 replicates; controls 5 of 9).
Variant KSLQSVLYESRNKNSVA | WASMRES | QQYHRLPLQ gave 12 nM (3 of 3 replicates; controls 0 of 9).
Variant KASQSVLYESRNKNSEA | WASTRES | TQYHRLPLS gave 2.2 µM (1 of 3 replicates; controls 0 of 9).
Variant KSSQSVLYESRNKNSVT | WASTRES | QQYHRLPYS gave nd (0 of 3 replicates; controls 1 of 9).
Variant KSSQSVLYESRNENSVA | WVSTRPS | QQYHRLPLS gave 190 nM (3 of 3 replicates; controls 2 of 9).
Variant KSSQSMLYESRNKHSVA | WASRRES | QQYHRLPLS gave 340 nM (3 of 3 replicates; controls 1 of 9).
Variant KSSQSVLYESRNKNSCA | WASTAES | QQYHRLPLQ gave nd (0 of 3 replicates; controls 0 of 9).

The opening 2 entries, copied out:

The variant KSSQSVLYESRNKNFVA | WASTRES | AAYHRLPLS gave 190 µM (3 of 3 replicates; controls 4 of 9).
The variant KSSQSVLYESRNKTSVE | WASTRES | QKYHRLPLS gave 270 µM (1 of 3 replicates; controls 1 of 9).

Parent in this assay: reference entry 4.4 nM, copy in this library 48 nM.